{"sequences": {"note": "Amino acid sequences for entries named in this document (tags omitted). Residues count along the entry.", "UniProt P35354, 18-604 limits assumed": "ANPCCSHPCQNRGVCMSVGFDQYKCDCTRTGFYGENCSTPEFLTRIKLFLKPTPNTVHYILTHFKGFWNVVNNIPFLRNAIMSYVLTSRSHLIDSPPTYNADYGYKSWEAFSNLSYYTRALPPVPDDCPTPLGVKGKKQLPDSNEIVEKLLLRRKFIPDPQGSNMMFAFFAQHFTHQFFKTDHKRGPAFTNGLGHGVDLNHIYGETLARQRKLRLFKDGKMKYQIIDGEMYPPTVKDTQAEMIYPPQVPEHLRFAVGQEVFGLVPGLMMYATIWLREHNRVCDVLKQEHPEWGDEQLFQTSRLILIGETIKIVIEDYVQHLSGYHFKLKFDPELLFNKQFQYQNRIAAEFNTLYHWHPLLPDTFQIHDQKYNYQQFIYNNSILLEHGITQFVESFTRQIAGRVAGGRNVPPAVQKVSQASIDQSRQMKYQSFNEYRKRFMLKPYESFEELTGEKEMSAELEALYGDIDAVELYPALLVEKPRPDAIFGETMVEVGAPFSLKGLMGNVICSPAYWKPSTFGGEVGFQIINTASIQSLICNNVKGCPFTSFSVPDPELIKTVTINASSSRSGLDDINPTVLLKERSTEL", "UniProt P23219, 24-599 limits assumed": "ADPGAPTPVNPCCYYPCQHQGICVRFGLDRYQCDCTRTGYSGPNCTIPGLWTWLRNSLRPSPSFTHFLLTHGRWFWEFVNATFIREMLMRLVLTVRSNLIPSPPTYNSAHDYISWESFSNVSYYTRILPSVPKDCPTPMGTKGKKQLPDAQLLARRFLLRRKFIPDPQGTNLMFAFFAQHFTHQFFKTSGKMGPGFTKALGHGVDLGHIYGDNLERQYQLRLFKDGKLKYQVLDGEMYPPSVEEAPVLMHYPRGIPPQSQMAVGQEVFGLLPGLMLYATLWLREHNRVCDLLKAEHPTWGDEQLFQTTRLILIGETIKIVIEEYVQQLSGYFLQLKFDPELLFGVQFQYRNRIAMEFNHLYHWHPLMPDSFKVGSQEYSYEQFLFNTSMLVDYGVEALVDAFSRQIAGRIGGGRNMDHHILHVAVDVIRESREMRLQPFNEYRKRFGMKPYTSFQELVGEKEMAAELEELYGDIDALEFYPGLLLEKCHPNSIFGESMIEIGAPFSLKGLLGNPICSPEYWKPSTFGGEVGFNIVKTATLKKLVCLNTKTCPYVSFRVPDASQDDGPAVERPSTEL"}, "source": "patent USRE38103E1", "about": "“5-methanesulfonamido-1-indanones as an inhibitor of cyclooxygenase-2” (Merck Frosst Canada & Co., priority 1992, dated 2003)", "key": {"cyclooxygenase-2": {"target": "cyclooxygenase-2 (Homo sapiens, UniProt P35354)", "test": "Inhibition of cyclooxygenase-2 activity (PGE2 synthesis in response to arachidonic acid, radioimmunoassay; whole cell and microsomal assays)", "format": "cell-based", "settings": "read-out: COX-2 IC50"}, "paw edema": {"test_system": "paw edema", "test": "Rat paw edema assay (carrageenan)", "format": "in vivo", "settings": "po"}, "cyclooxygenase-1": {"target": "cyclooxygenase-1 (Homo sapiens, UniProt P23219)", "test": "Inhibition of cyclooxygenase-1 activity (PGE2 synthesis in response to arachidonic acid, radioimmunoassay; whole cell and microsomal assays)", "format": "cell-based", "settings": "read-out: COX-1 IC50; table of prepared examples"}}, "note": "Where two headings read alike, the source gives them in different places."}
{"smiles": "CS(=O)(=O)Nc1cc2c(cc1Sc1ccc(Cl)cc1Cl)C(=O)CC2", "values": [{"measurement": "IC50", "setting": "cyclooxygenase-2; human osteosarcoma 143 cells, PGE2 synthesis", "result": 0.007, "unit": "µM"}, {"measurement": "IC50", "setting": "cyclooxygenase-2; table of prepared examples", "result": 0.007, "unit": "µM"}, {"measurement": "Rat Paw EDEMA ED30", "setting": "paw edema; 1 hr before carrageenan, paw volume 3 hr later", "result": 0.1, "unit": "mpk"}]}
{"smiles": "CS(=O)(=O)Nc1cc2c(cc1Sc1ccccc1C(F)(F)F)C(=O)CC2", "values": [{"measurement": "IC50", "setting": "cyclooxygenase-2; table of prepared examples", "result": 0.1, "unit": "µM"}]}
{"smiles": "CS(=O)(=O)Nc1cc2c(cc1Sc1ccc(Br)cc1F)C(=O)CC2", "values": [{"measurement": "IC50", "setting": "cyclooxygenase-2; table of prepared examples", "result": 0.01, "unit": "µM"}]}
{"smiles": "CCc1ccc(Sc2cc3c(cc2NS(C)(=O)=O)CCC3=O)cc1", "values": [{"measurement": "IC50", "setting": "cyclooxygenase-2; table of prepared examples", "result": 1, "unit": "µM"}]}
{"smiles": "CS(=O)(=O)Nc1cc2c(cc1Sc1c(F)cccc1F)C(=O)CC2", "values": [{"measurement": "IC50", "setting": "cyclooxygenase-2; table of prepared examples", "result": 0.1, "unit": "µM"}]}
{"smiles": "CS(=O)(=O)Nc1cc2c(cc1Sc1ccccc1F)C(=O)CC2", "values": [{"measurement": "IC50", "setting": "cyclooxygenase-2; table of prepared examples", "result": 0.1, "unit": "µM"}]}
{"smiles": "COc1ccc(Sc2cc3c(cc2NS(C)(=O)=O)CCC3=O)cc1", "values": [{"measurement": "IC50", "setting": "cyclooxygenase-2; table of prepared examples", "result": 0.3, "unit": "µM"}]}
{"smiles": "CS(=O)(=O)Nc1cc2c(cc1Sc1c(F)cc(Br)cc1F)C(=O)CC2", "values": [{"measurement": "IC50", "setting": "cyclooxygenase-2; table of prepared examples", "result": 0.06, "unit": "µM"}, {"measurement": "IC50", "setting": "cyclooxygenase-1", "result": "> 100", "unit": "µM"}]}
{"smiles": "CS(=O)(=O)Nc1cc2c(cc1Sc1ccc(Br)cc1)C(=O)CC2", "values": [{"measurement": "IC50", "setting": "cyclooxygenase-2; table of prepared examples", "result": 0.008, "unit": "µM"}, {"measurement": "Rat Paw Edema ED50", "setting": "paw edema; table of prepared examples", "result": 3.0, "unit": "mpk"}, {"measurement": "IC50", "setting": "cyclooxygenase-1", "result": "> 10", "unit": "µM"}]}
{"smiles": "CSc1ccc(Oc2cc3c(cc2NS(C)(=O)=O)CCC3=O)cc1", "values": [{"measurement": "IC50", "setting": "cyclooxygenase-2; table of prepared examples", "result": 0.1, "unit": "µM"}]}
